Nrf2 activator – Nrf2 pathway activation | AREc32 ARE-luciferase reporter (MCF7-derived line), luminescence, 24 h | Potency, µM (highest dose often 46.1 µM), inactives show top-dose activation, actives largely listed as activators | actives 0.31% (n = 410,000); note: potency is the fitted concentration of half-maximal effect; % of control where 0% means no effect; nearly all actives have a fitted effect of over 65% in size
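Cells of the AREc32 ARE-luciferase line are plated in OPTI-MEM containing 5% FBS and left overnight at 37 deg C. Compounds are pinned in, incubation continues 24 hr, and firefly luciferase signal is then measured.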
Nrf2 block – Nrf2 pathway inhibition; A549 ARE-Fluc reporter, luciferase luminescence, 18-24 h; Potency, µM (series often up to 46 µM), for inactives: top-dose activity change, negative = inhibition, usual class: inhibitors; actives 2.1% (n = 360,000); AID 504444; note: potency is the fitted concentration of half-maximal effect; % is set by controls: 0 for no effect and ±100 for the full control effect; nearly all actives have a fitted effect of over 60% in size
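A549 ARE_Fluc cells (5000/well, 5% FBS OPTI-MEM) pre-incubated 2 h, then treated with compounds 18-24 h at 37C/5% CO2 in concentration-response. CellTiter-Fluor viability read first; BugLite luciferase luminescence after 15 min at room temperature gives Nrf2 activity.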
miR-21 reporter – raises the signal of a miR-21 reporter | HeLa miR-21 FLuc reporter, luciferase, 48 h | Potency, µM (highest dose often 38.3 µM), inactives show at the highest dose reporter change, positive = more light | 340,000 tested, under 10 active | AID 2288; active = well fitted rising curve with a large enough effect; inconclusive = small, poorly fitted or top-dose-only effect; inactive = no such curve, though single readings can be large or run the other way;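 note: % of control where 0% means no effect; miR-21 action dims this reporter so a rising signal means less miR-21 action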
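HeLa cells endogenously expressing miR-21, stably carrying CMV-driven firefly luciferase with a downstream miR-21 binding site, 2000 cells/well. Titrations up to approximately 40 uM, 48 hours; luciferase luminescence read.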
ClpP mod – qHTS Assay for Activators of ClpP. ATP-dependent Clp protease proteolytic subunit (Bacillus subtilis (strain 168)), P80244. purified B. subtilis ClpP, FRET peptide cleavage, 20 min. Potency, µM (top dose mostly 57.5 µM), inactives show top-dose activity change, negative = active. actives 1.9% (n = 340,000); active = well fitted falling curve with a large enough effect; inconclusive = small, poorly fitted or top-dose-only effect; inactive = no such curve, though single readings can be large or run the other way; note: potency is the fitted concentration of half-maximal effect; the source files actives as falling curves though it sought activators and does not explain the sign; nearly all actives have a fitted effect of over 65% in size
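FRET quenching reversal measured ClpP activation: 10 microg/mL B. subtilis ClpP at pH 8 with the FRET-FV decapeptide, read at 430 nm after 320 nm excitation. The 20-min minus 0-min signal was scaled between DMSO/no-enzyme wells and ADEP (5.8 microM final).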
A549 viability – kills or reduces viability of A549 cells in Nrf2 counter-screen | actives 0.16% (n = 390,000) | A549 ARE-Fluc cells, CellTiter-Fluor viability, 18-24 h | Potency, µM (doses to about 46 µM), for inactives: at the top dose activity change, negative = cytotoxicity, actives largely listed as inhibitors; note: potency is the fitted concentration of half-maximal effect; % is set by controls: 0 for no effect and ±100 for the full control effect
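Cytotoxicity counterscreen: CellTiter-Fluor fluorescence was measured in A549 ARE_Fluc cells after 18-24 h of compound exposure in a concentration series. The subsequent BugLite luminescent read reports ARE-luciferase activity.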
p53 reactivation – restores transcriptional activity of mutant p53; H1299 p53-A138V BP100-luciferase reporter, luminescence, 24 h; AID 504706; Potency, µM (top dose mostly 92.2 µM), without a hit: at the highest dose activity change, positive = activation, usual class: activators; actives 0.063% (n = 320,000); note: potency is the fitted concentration of half-maximal effect; % of control where 0% means no effect; nearly all actives have a fitted effect of over 45% in size
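p53-null H1299 cells stably carrying temperature-sensitive p53-A138V and a BP100-luciferase reporter were pinned with compounds (4-point, 1:5 series) and held 24 hrs at 37 deg C. Luminescence was read 10 min after detection reagent.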
* marks the source's active call; other numbers are inactive results; ? = inconclusive; · = no result given; [ ] = another dose, or the depositor's remark. Shown are actives, neighbours in structure and some others; about 3.7% of the full set was active somewhere. Unless noted, calls come from the whole dose curve; as a rule, active = well fitted curve in the direction sought with a large enough effect; inconclusive = small, poorly fitted or top-dose-only effect, or another doubt; inactive = no such curve, though single readings can be large; an effect the other way counts as inactive or inconclusive.

The chains behind the UniProt entries cited, without tags or fusion partners.
ATP-dependent Clp protease proteolytic subunit (Bacillus subtilis (strain 168)), P80244, UniProt P80244, whole entry, looked up: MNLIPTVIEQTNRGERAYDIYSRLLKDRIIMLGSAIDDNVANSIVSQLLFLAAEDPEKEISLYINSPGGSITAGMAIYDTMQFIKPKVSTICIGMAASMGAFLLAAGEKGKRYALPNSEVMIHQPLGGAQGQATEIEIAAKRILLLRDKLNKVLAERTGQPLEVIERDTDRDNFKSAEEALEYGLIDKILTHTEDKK

[1] Cc1ccccc1Nc1nn2c(=O)c3ccc(C(=O)NCC(C)c4ccccc4)cc3nc2s1 (stereo not given)
[2] O=C(/C=C/c1ccco1)NC(=S)Nc1ccccc1O
[3] O=C(/C=C\c1ccco1)NC(=S)Nc1ccccc1O
[4] COc1ccc2nc(N3C(=O)C(O)=C(C(=O)c4ccco4)C3c3ccc(C)o3)sc2c1 (stereo not given)
[5] Cc1ccc2nc(N3C(=O)C(O)=C(C(=O)c4ccco4)C3c3cccs3)sc2c1 (stereo not given)
[6] Cc1ccc(S(=O)(=O)N(C)c2ccc(C(=O)Nc3cccc(C)n3)cc2)cc1
Screen / compound no. | 1 | 2 | 3 | 4 | 5 | 6
Nrf2 block | -26.7% | ? | 9.6% | ? | ? | ?
miR-21 reporter | 25.6% | -4.3% | -7.8% | · | -66.9% | 13.8%
A549 viability | -2.0% | 2.7% | -0.6% | ? | 14.6µM* | -8.0%
ClpP mod | -5.6% | · | -1.2% | · | -4.1% | -0.9%
p53 reactivation | · | -2.6% | 17.5% | 4.2% | ? | -9.8%
Nrf2 activator | -0.4% | 26.0% | 7.08µM* | 11.4% | ? | -0.3%

Whole records, quoted from the list:
Results for `O=C(/C=C/c1ccco1)NC(=S)Nc1ccccc1O` → Nrf2 block: ?; miR-21 reporter: -4.3%; A549 viability: 2.7%; ClpP mod: ·; p53 reactivation: -2.6%; Nrf2 activator: 26.0%
Results for `Cc1ccccc1Nc1nn2c(=O)c3ccc(C(=O)NCC(C)c4ccccc4)cc3nc2s1` (stereo not given) → Nrf2 block: -26.7%; miR-21 reporter: 25.6%; A549 viability: -2.0%; ClpP mod: -5.6%; p53 reactivation: ·; Nrf2 activator: -0.4%

Following part:
[7] Cc1cccc(NC(=O)c2cccc(S(=O)(=O)N(C)c3ccccc3)c2)n1
[8] CCN(c1ccccc1)S(=O)(=O)c1ccc(C(=O)Nc2cccc(C)n2)cc1
[9] Cc1c(P(=S)(c2ccccc2)c2ccccc2)c2ccccc2n1C/C=C/c1ccccc1
[10] Clc1nnc2ccc(-c3ccccc3)nn12
[11] Cc1ccc2nnc(Cl)n2n1
[12] COc1cc2nc(N(C)C)nc(NC3CCN(C)CC3)c2cc1OC
Screen / compound no. | 7 | 8 | 9 | 10 | 11 | 12
Nrf2 block | 14.6µM* | 18.4µM* | 7.6% | -4.3% | ? | ·
miR-21 reporter | · | · | · | -18.0% | -9.2% | ·
A549 viability | ? | -17.8% | -0.8% | -11.2% | 7.9% | ·
ClpP mod | 2.5% | -1.6% | · | 25.1µM* | ? | 4.3%
p53 reactivation | 16.1% | 7.1% | · | 4.7% | 12.4% | ·
Nrf2 activator | 9.9% | 0.2% | · | 2.8% | 0.0% | ·

[13] CSC1=NC2(CCN(C(=O)NC3CCCCC3)CC2)N=C1c1ccc(C(C)(C)C)cc1
[14] COc1ccc(OC)c(/C=C/c2cc3ccccc3cn2)c1
[15] Cc1cccc(NS(=O)(=O)c2ccccc2)n1
[16] Cc1cccc(NS(=O)(=O)c2ccc(C3CCCCC3)cc2)n1
[17] Cc1cccc(NS(=O)(=O)c2ccc(C3CCCCC3)cc2)c1
[18] Cc1cccc(NS(=O)(=O)c2ccc(C(C)(C)C)cc2)n1
Screen / compound no. | 13 | 14 | 15 | 16 | 17 | 18
Nrf2 block | ? | · | 21.6% | -17.9% | ? | 0.2%
miR-21 reporter | 3.0% | · | -1.0% | -7.4% | 21.6% | 1.2%
A549 viability | 3.2% | · | 6.7% | -0.6% | ? | 4.6%
ClpP mod | 1.6% | -24.6% | 20µM* | 22.4µM* | 1.6% | 4.3%
p53 reactivation | · | · | 5.3% | 4.5% | 0.4% | 61.8%
Nrf2 activator | -0.4% | · | 0.0% | -0.6% | -0.7% | 5.3%

Entries listed above shown as hits in Nrf2 activator.
# | Structure | miR-21 reporter | ClpP mod | p53 reactivation | Nrf2 activator
3 | O=C(/C=C\c1ccco1)NC(=S)Nc1ccccc1O | -7.8% | -1.2% | 17.5% | 7.08µM*

Next section
[19] CCCCOc1cccc(C(=O)Nc2sc3c(c2C(=O)OCC)CCCC3)c1
[20] Cc1ccc(CNC(=O)C2CCN(c3nc4ccc(C)cc4[nH]3)CC2)cc1
[21] C[C@H]1CN([C@@H](C)CO)C(=O)CCCn2nncc2CO[C@H]1CN(C)S(=O)(=O)c1ccc(C#N)cc1
[22] O=S1(=O)C2CC3OC2(CC3c2ccc(F)cc2)CN1Cc1ccc(Cl)cc1 (stereo not given)
[23] CC(=O)c1c(C)[nH]c(C(=O)CSc2nc3ccccc3n2C)c1C
[24] CCn1c(SCC(=O)c2[nH]c(C)c(C(C)=O)c2C)nnc1-c1cccs1
Screen / compound no. | 19 | 20 | 21 | 22 | 23 | 24
Nrf2 block | -1.4% | · | · | ? | 14.6µM* | ?
miR-21 reporter | -0.5% | -7.4% | · | · | 12.0% | 25.1%
A549 viability | -2.3% | -1.5% | · | -5.0% | -3.0% | -3.4%
ClpP mod | -4.6% | 2.1% | 1.2% | · | 1.2% | -3.5%
p53 reactivation | · | · | · | · | -1.5% | 4.8%
Nrf2 activator | 2.3% | 16.7% | 0.3% | · | 2.3% | 5.3%

[25] COC(=O)/C=C1\S/C(=N/N=C/c2ccco2)NC1=O
[26] COC(=O)/C=C1/S/C(=N/N=C/c2ccco2)NC1=O
[27] COc1cccc(/C=N/NC(N)=S)c1OCc1cccc(Cl)c1
[28] O=C(NNC1=C(C(=O)C(F)(F)F)CCC1)c1ccccc1Cl
[29] O=C(NNC1=C(C(=O)C(F)(F)F)CCC1)c1ccccc1O
[30] COc1ccccc1N1C(=O)c2ccccc2NC1C(OC)OC (stereo not given)
Screen / compound no. | 25 | 26 | 27 | 28 | 29 | 30
Nrf2 block | ? | -5.0% | 16.4µM* | ? | ? | 1.1%
miR-21 reporter | 1.4% | -4.5% | ? | -10.8% | -14.7% | -1.3%[7.66 µM]
A549 viability | -3.5% | -19.8% | -19.9% | -9.1% | -25.6% | -3.7%
ClpP mod | -0.7% | -28.8% | · | 28.2µM* | -15.9% | 22.4µM*
p53 reactivation | 1.7% | -0.9% | -12.0% | ? | 22.9% | -0.9%
Nrf2 activator | ? | 10µM* | 2.6% | 4.3% | 7.7% | -0.4%

[31] COc1ccc(CNC(=O)c2cc(S(=O)(=O)N3CCCCC3)ccc2Cl)cc1OC
[32] CCOc1ccc(CNC(=O)C2CCCN(S(=O)(=O)N(C)c3ccc(F)cc3)C2)cc1OC (stereo not given)
[33] COc1ccc(S(=O)(=O)N2CCCCCC2)cc1C(=O)NCc1ccccc1Cl
[34] COc1ccc(CNC(=O)C2CCCN(S(=O)(=O)N(C)c3ccc(F)cc3)C2)cc1OC (stereo not given)
[35] COc1ccccc1N1CCN(C(=O)CN2C(=O)COc3ccc(S(=O)(=O)N4CCCC4)cc32)CC1
[36] O=C(COc1cccnc1[N+](=O)[O-])Nc1cccc2ccccc12
Screen / compound no. | 31 | 32 | 33 | 34 | 35 | 36
Nrf2 block | 16.4µM* | ? | ? | 23.1µM* | 1.6% | -11.2%
miR-21 reporter | · | ? | · | ? | -0.9% | ·
A549 viability | 0.4% | -12.9% | -1.6% | -2.8% | -3.1% | -4.3%
ClpP mod | 1.0% | -0.3% | 25.1µM* | 1.1% | -1.4% | -1.8%
p53 reactivation | -7.2% | · | 5.2% | · | · | -12.4%
Nrf2 activator | 2.5% | 1.0% | -0.1% | 0.3% | 0.2% | 5.62µM*

[37] NNC(=O)COc1ccccc1[N+](=O)[O-]
[38] O=C(COc1cccnc1[N+](=O)[O-])N1CCC(Cc2ccccc2)CC1
[39] O=C(COc1cccnc1[N+](=O)[O-])Nc1c(Cl)cccc1Cl
[40] O=C(COc1ccccc1[N+](=O)[O-])NNC(=O)Nc1cccc2ccccc12
[41] COC(=O)[C@H]1C[C@H](OC(=O)NC2CCCC2)[C@@]2(O)CN(S(=O)(=O)c3ccc(C)cc3)CC2[C@H]1C(=O)OC (stereo not given in full)
[42] CC(=O)N1CCSc2ccc(S(=O)(=O)NCCc3ccc(C)cc3)cc21
[43] CC(=O)N1CC(C)Sc2ccc(S(=O)(=O)NCCc3ccc(C)cc3)cc21 (stereo not given)
[44] CC(=O)N1CCSc2ccc(S(=O)(=O)NCCc3ccc(Cl)cc3)cc21
Screen / compound no. | 37 | 38 | 39 | 40 | 41 | 42 | 43 | 44
Nrf2 block | 11.9% | 14.6µM* | -28.9% | ? | · | ? | 7.31µM* | 14.6µM*
miR-21 reporter | -28.6% | · | · | -15.6% | · | 10.4% | 13.5% | 17.5%
A549 viability | 1.9% | 1.7% | 3.0% | -4.1% | · | -3.9% | -11.2% | -17.9%
ClpP mod | 1.4% | · | · | -26.0% | -0.1% | · | -0.2% | 0.1%
p53 reactivation | 6.1% | -7.6% | 3.4% | 0.5% | · | -6.6% | 8.1% | -4.5%
Nrf2 activator | 0.4% | 2.7% | 1.0% | 14.1µM* | 2.9% | 2.6% | -0.3% | 0.1%

Screening results as filed in PubChem.
